Earlier results on one substance are cited in patent US20260053940A1, “PHARMACEUTICAL COMPOSITION OF ANTIBODY DRUG CONJUGATE” (GENEQUANTUM HEALTHCARE (SUZHOU) CO., LTD., priority 2022, published 2026).

The conditions of this series: cited from earlier work.

As for Enhertu, the “interstitial lung disease, share of patients” value is recorded as “no less than 10%”.
